Values of other authors as cited in patent publication US12201630B2 (Alar Pharmaceuticals Inc., priority 2018, dated 2025).

Conditions: transdermal delivery through skin sample, in vitro diffusion

**Q.** Which “Increase in naltrexone cumulative amount versus naltrexone” value does the source give for valeroyl-naltrexone here?
**A.** The value was “eight-fold”.
